In this experiment the target is T1, human CYP11B1 mutant (W49R, L50N, L53N, W56R, L244N, W247N) (Homo sapiens, UniProt P15538, L244N/L50N/L53N/W247N/W49R/W56R).
T1 sequence (P15538 28-503 W49R/L50N/L53N/W56R/L244N/W247N limits assumed): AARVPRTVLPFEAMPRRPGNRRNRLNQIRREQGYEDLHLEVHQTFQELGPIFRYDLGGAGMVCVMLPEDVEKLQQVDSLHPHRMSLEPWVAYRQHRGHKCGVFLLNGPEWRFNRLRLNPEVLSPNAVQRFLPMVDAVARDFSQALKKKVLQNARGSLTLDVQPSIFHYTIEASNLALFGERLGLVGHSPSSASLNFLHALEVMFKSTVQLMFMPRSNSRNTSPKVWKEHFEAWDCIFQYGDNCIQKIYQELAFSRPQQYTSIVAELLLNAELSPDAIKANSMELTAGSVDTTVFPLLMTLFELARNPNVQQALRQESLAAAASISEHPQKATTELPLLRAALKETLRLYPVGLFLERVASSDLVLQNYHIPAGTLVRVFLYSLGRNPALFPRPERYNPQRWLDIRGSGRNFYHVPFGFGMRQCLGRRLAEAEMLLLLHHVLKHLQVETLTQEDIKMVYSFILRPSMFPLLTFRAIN
Briefly: Spectroscopic titration of ferric enzyme (difference spectra), mutant. The following applies: calculated from apparent Kd obtained by titration in the presence of 320 μM DOC.

Sequences of proteins named here, by UniProt entry; tags and fusion partners are left off. A change or cut given only in a name is not applied to a line headed by its entry.
UniProt P15538: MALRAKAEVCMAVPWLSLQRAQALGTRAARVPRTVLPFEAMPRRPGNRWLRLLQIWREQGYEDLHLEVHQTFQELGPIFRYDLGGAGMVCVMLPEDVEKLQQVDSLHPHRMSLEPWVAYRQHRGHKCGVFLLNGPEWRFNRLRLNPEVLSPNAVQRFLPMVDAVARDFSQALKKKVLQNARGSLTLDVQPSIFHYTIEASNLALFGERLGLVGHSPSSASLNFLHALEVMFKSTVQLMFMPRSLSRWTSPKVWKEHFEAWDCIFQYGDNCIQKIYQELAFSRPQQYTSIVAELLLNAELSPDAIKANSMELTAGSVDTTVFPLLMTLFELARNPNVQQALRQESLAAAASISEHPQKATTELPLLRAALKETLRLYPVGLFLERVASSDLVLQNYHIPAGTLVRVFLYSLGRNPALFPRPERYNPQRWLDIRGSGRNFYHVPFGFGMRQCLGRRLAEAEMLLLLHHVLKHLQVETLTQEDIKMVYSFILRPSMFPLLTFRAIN

This passage reports Kd results from article PMC8408562, “Spatially restricted substrate-binding site of cortisol-synthesizing CYP11B1 limits multiple hydroxylations and hinders aldosterone synthesis” (Current Research in Structural Biology, 2021).

For `CC(C)(C(=O)c1cccnc1)c1cccnc1` [Metyrapone, metyrapone], the Kd was 0.0119 µM.
